# Reference: patent US10363215B2, “Porous microparticles with high loading efficiencies” (THE TEXAS A & M UNIVERSITY SYSTEM, priority 2013, dated 2019)
# Experiment: Loading (encapsulation) efficiency of BMP-2 in porous microspheres, protein assay after crushing and incubating in water
# Type: physicochemical
# Details: EGDMA/PGPR/DMPA porous microspheres about 800 micrometer in diameter, average pore size 14 micrometers; compared to theoretical maximum
# Protocol: While a biologic substance (recombinant human bone morphogenetic protein-2 (BMP-2), 5000 ng) in water (1.5 mL) was the aqueous phase. The two phases were mixed as described herein to form a first emulsion and then provided drop wise to a second component, thereby fabricating porous microspheres. In one example, these porous microspheres were formed to be about 800 micrometer in diameter. Loading efficiency of the BMP-2 was determined by crushing the microspheres and then incubating in 3 mL deionized water while agitating, for about 15 hours in small containers (e.g., 15 mL tubes). After agitation, the crushed particles were collected at a high speed in the incubating containers, the incubating liquid was removed and saved, and the particles were introduced to additional water as before. Protein concentrations in the collected liquids, when combined, was measured using a seven point calibration curve, and the amount encapsulated was compared to a theoretical maximum based on HIPE (or MIPE) concentration. […] The protein encapsulation had little effect on particle size and microarchitecture. […] Without being bound by theory, the increased encapsulation efficiency may be associated both with the physical entrapment of the molecules and possible adsorption onto the microsphere pore walls. […]
substance,measurement,value
BMP-2: recombinant human bone morphogenetic protein-2 encapsulated in EGDMA/PGPR porous microspheres,encapsulation efficiency,73%±3%
